Measurements: US20040072834A1, “Crystal forms of quinoxaline-2-carboxylic acid [4-carbamoyl-1-(3-fluorobenzyl)-2,7-dihydroxy-7-methyl-octyl]-amide” (Pfizer Inc., priority 2002, published 2004)

By UniProt entry, the sequences of proteins in these tests, tags left out. Where a name states a change or a piece, a line headed by the entry shows the natural chain unless it says otherwise.
UniProt P32246: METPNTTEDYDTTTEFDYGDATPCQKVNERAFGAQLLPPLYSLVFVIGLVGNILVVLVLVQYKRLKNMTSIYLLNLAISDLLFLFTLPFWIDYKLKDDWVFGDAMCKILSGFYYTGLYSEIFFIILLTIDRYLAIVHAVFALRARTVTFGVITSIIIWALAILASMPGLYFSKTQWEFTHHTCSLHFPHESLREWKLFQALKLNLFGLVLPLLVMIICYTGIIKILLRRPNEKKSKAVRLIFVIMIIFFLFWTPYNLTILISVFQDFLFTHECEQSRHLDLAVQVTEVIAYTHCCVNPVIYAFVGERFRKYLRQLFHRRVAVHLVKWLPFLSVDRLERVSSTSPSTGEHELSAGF

Molecular target: CCR1 (Homo sapiens, UniProt P32246)
Assay: cell-based

Q: `CC(C)(O)CC[C@H](C[C@H](O)[C@H](Cc1cccc(F)c1)NC(=O)c1cnc2ccccc2n1)C(N)=O` [Ia-3, Quinoxaline-2-carboxylic acid [4-carbamoyl-1-(3-fluorobenzyl)-2,7-dihydroxy-7-methyl-octyl]-amide] was tested. Which IC50 did it give?
A: < 25 µM
